One assay deals with FYN (Homo sapiens, UniProt P06241). Briefly: PanQinase kinase panel: FYN. To be noted: read-out: INHIBITORY EFFECT @ 1 uM: FYN.
Another assay has as its target SRC (Homo sapiens, UniProt P12931). Briefly: PanQinase kinase panel: SRC. Particulars: read-out: INHIBITORY EFFECT @ 1 uM: SRC.

By UniProt entry, the sequences of proteins in these tests, tags left out.
UniProt P06241, whole entry: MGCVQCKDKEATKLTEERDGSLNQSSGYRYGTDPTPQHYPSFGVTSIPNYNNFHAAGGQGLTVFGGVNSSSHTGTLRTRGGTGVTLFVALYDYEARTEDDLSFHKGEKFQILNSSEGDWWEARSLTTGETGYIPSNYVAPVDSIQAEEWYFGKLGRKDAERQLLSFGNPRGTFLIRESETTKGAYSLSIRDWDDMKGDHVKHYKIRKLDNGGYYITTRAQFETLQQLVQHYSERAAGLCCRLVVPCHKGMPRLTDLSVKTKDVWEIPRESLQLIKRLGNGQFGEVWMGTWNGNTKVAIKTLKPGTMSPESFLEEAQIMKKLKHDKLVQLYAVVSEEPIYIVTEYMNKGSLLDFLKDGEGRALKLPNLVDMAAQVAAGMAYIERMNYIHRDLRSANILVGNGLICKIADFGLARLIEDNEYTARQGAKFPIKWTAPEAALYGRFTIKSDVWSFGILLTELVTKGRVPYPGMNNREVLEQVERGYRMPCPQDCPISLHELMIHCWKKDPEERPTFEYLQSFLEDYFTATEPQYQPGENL

Drawing on patent publication US20250326753A1, “DUAL CXCR4-BTK INHIBITORS” (X4 Pharmaceuticals, Inc., priority 2022, published 2025), this text covers inhibition for one molecule.

Consider `O=C(c1ccc(Oc2ccccc2)cc1Cl)c1c[nH]c2ncnc(N[C@@H]3CC[C@@H](CO)OC3)c12` [ARQ-531, (2-chloro-4-phenoxyphenyl) (4-(((3R,6S)-6-(hydroxymethyl)tetrahydro-2H-pyran-3-yl)amino)-7H-pyrrolo[2,3-d]pyrimidin-5-yl) methanone], for which the inhibition at 1 µM on FYN was 90 to 100%; at SRC it was 70 to 89%.
